In the library only some 4.2% were active in any assay of this set; here they are far more common.
Yeast UUG start: modulators of start codon recognition fidelity in yeast; S. cerevisiae UUG-firefly luciferase reporter, luminescence/redox ratio; activity score, % at 18.7 µM; hit rate 0.13% among 350,000; AID 602363;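 active = replicate mean at a twofold rise or more, about +100% in these data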;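 note: firefly luciferase made from a UUG start codon reports start codon fidelity; reporter light over untreated wells divided by growth signal over untreated wells; some hits fall short of that in this replicate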
NALP1 inh: NALP1 inflammasome inhibitors in reconstituted yeast, colorimetric, S. cerevisiae, triplicate retest | S. cerevisiae NALP1/ASC/caspase-1 growth, X-gal OD620, 72 h | inhibition, % at 10 µM | 0.61% of 280,000 active | AID 2071, 2009; in the data active = inhibition mostly above about 24%, no sharp cut-off; inactive = mostly below about 32%
ALR inh: inhibitors of human sulfhydryl oxidase ALR; P55789; purified ALR, DTT oxidation, H2O2 HRP-luminol luminescence; inhibition, % (test concentration not listed); actives 3.8% (n = 290,000); AID 485317;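 active = mean and each replicate at 75% or more; inconclusive = only one of the two met; inactive = neither met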;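 also: stock transfer was 7.5 nL into about 7.5 µL; 0% = neutral wells and 100% = wells with inactivated enzyme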
HDAC3 inhib: HDAC3 deacetylase inhibitors, primary screen, biochemical, fluorescence, cell-free homogeneous; recombinant HDAC3, fluorogenic peptide/trypsin coupled; inhibition, % at 8.3 µM; 0.15% of 320,000 active; AID 2718, 2010; in the data active = inhibition above about 26%, passing the limit was not always enough
MC4R barr agon: MC4R agonists recruiting beta-arrestin, primary screen, cell-based, luminescence, agonist arm of biased-ligand search; Melanocortin receptor 4 (Homo sapiens), P32245; U2OS MC4R beta-arrestin complementation; percent of melanotan II response, DMSO zero; activation, % at 8.9 µM; 0.98% of 360,000 active;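 active = activation above a per-plate cutoff, the mean activation of sample wells on that plate plus 3 SD, cut at about 8% in these data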
MC4R antagonist: MC4R antagonists of cAMP signaling, primary screen, cell-based, TR-FRET, antagonist arm of biased-ligand search; MC4R-expressing cells, MTII-stimulated cAMP, LANCE TR-FRET; 0.48% of 360,000 active; Melanocortin receptor 4 (Homo sapiens), P32245; inhibition, % at 6.5 µM;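 active = inhibition above its plate's cutoff, the mean of tested wells on that plate plus 3 SD, cut at about 29% in these data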
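Assay system: U2OS cells stably expressing human melanocortin 4 receptor (MC4R) / Dosing: 6.5 µM / Timing: compound 30 min, challenge 1 h, detection 1 h / Measured by: Eu-cAMP/anti-cAMP TR-FRET, emission 671 nm / Replicates: singlicate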
MC4R barr conf: MC4R beta-arrestin agonists, retest, confirmation, cell-based, luminescence, U2OS | U2OS MC4R beta-arrestin recruitment; scaled DMSO 0%, Melanotan II 100% | shares compounds with MC4R barr agon | AID 602192, 2012 | activation, % at 8.9 µM | 31% of 2,400 active;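 active = mean activation across replicates above the hit cutoff set in the earlier primary screen, cut at about 8% in these data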
MOR-DOR barr ag: agonists of MOR-DOR heterodimerization, counter-screen for MC4R biased agonist project, cell-based, luminescence; shares compounds with MC4R barr agon; U2OS PathHunter beta-arrestin, beta-gal luminescence; percent of deltorphin B response, DMSO zero; activation, % at 9.2 µM; 5.8% of 2,400 active;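 active = mean activation across replicates exceeds the hit threshold derived in the earlier primary screen, cut at about 18% in these data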
Large screens that a line does not name were inactive (follow-up assays come after a bar, where they were run).

Sequences of proteins named here, by UniProt entry; tags and fusion partners are left off.
Melanocortin receptor 4 (Homo sapiens), P32245, UniProt P32245, whole entry, looked up: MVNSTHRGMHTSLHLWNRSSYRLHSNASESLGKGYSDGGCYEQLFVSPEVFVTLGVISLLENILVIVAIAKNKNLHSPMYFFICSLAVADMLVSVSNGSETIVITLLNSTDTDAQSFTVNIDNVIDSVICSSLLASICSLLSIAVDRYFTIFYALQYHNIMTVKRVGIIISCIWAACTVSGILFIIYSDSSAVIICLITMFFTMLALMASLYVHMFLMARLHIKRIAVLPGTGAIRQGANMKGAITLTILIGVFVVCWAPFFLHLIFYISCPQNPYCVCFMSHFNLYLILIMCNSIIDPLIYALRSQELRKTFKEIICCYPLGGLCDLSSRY

CO[C@@H]1CN(C)C(=O)c2ccc(NC(=O)C3CC3)cc2OC[C@H](C)N(C(=O)Cc2ccccn2)C[C@@H]1C	none (no result: NALP1 inh, ALR inh, HDAC3 inhib, MC4R barr agon, MC4R antagonist)
COc1ccc(NC(=O)N(C)C[C@@H]2Oc3c(NS(C)(=O)=O)cccc3C(=O)N([C@@H](C)CO)C[C@H]2C)cc1	none (no result: NALP1 inh, ALR inh, HDAC3 inhib, MC4R barr agon, MC4R antagonist)
COc1ccc2cc(CNCCOCCOCCNCc3ccc4cc(OC)ccc4c3)ccc2c1	MC4R barr agon 17 (no result: Yeast UUG start, NALP1 inh, ALR inh, HDAC3 inhib) | MC4R barr conf 58 | MOR-DOR barr ag 20
O=C(C1CCCCC1)N1C[C@@H](n2cc(-c3ccc(F)cc3)nn2)[C@H](O)C[C@@H]1c1ccc(Cl)cc1	MC4R barr agon 12 (no result: NALP1 inh, ALR inh, HDAC3 inhib) | MC4R barr conf inactive | MOR-DOR barr ag inactive
CCCCCCOc1ccc(N2C(=O)CC(S/C(N)=N/N=C(\C)c3cccs3)C2=O)cc1 (stereo not drawn)	MC4R barr agon 21 | MC4R barr conf 15 | MOR-DOR barr ag inactive
C/C(=N\N=C(/N)SC1CC(=O)N(c2ccccc2)C1=O)c1cccs1 (stereo not drawn)	none
O=C(CSc1nc2ccc(NC(=O)CSc3nnnn3Cc3ccccc3)cc2s1)Nc1ccccc1	MC4R barr agon 12 (no result: ALR inh) | MC4R barr conf inactive | MOR-DOR barr ag inactive
Cc1ccc(C(C)C)c(OCc2nnc(SCC(=O)Nc3ncc(C)s3)n2C)c1	MC4R barr agon 13 (no result: NALP1 inh) | MC4R barr conf inactive | MOR-DOR barr ag inactive
Cn1cnnc1SCC(=O)Nc1ccc2nc(SCc3cccc4ccccc34)sc2c1	MC4R barr agon 9.6 (no result: Yeast UUG start) | MC4R barr conf inactive | MOR-DOR barr ag inactive
Cc1ccccc1OCc1nnc(SCC(=O)Nc2ccc3nc(SCC(=O)Nc4ccccc4)sc3c2)n1C	MC4R barr agon 18 (no result: Yeast UUG start, ALR inh, HDAC3 inhib) | MC4R barr conf inactive | MOR-DOR barr ag inactive
CCN(C[C@H]1[C@H](c2ccc(C3=CCCC3)cc2)[C@H](CO)N1C(C)=O)C(C)=O	none (no result: NALP1 inh, ALR inh, HDAC3 inhib, MC4R barr agon, MC4R antagonist)
Cc1noc(C)c1NC(=O)Nc1ccc2c(c1)CC(=O)N([C@@H](C)CO)C[C@@H](C)[C@@H](CN(C)C)O2	none (no result: NALP1 inh, ALR inh, HDAC3 inhib, MC4R barr agon, MC4R antagonist)
O=C(C[C@@H]1C[C@H]2c3cc(NC(=O)NC4CCCC4)ccc3O[C@H]2[C@@H](CO)O1)NCc1cccc(F)c1	none (no result: NALP1 inh, ALR inh, HDAC3 inhib, MC4R barr agon, MC4R antagonist)
C=CCN(CC=C)S(=O)(=O)c1ccc(NC(=S)NC(=O)/C=C/c2ccccc2)cc1	NALP1 inh 27, MC4R barr agon 19 | MC4R barr conf inactive | MOR-DOR barr ag inactive
C=CCN(CC=C)C(=S)NC(=O)/C=C/c1ccccc1	none (no result: ALR inh)
CCCNC(=O)N1[C@H](CO)[C@@H](c2ccc(C3=CCCC3)cc2)[C@@H]1CN(C)C(C)=O	none (no result: NALP1 inh, ALR inh, HDAC3 inhib, MC4R barr agon, MC4R antagonist)
Cc1cccc(NC(=O)c2cccc3c2C(=O)c2ccccc2-3)c1	MC4R barr agon 33 | MC4R barr conf 8.3 | MOR-DOR barr ag inactive
Cc1cccc(NC(=O)c2ccccc2-c2ccccc2)c1	none (no result: Yeast UUG start)
COc1ccccc1-c1cc(NC=O)c2ncc(-c3cccc(C(F)(F)F)c3)n2c1	MC4R barr agon 25 (no result: NALP1 inh, ALR inh, HDAC3 inhib) | MC4R barr conf 23 | MOR-DOR barr ag inactive
COc1cc(-c2cnc3c(NC=O)cc(-c4cccc(NC(C)=O)c4)cn23)cc(OC)c1OC	none (no result: NALP1 inh, ALR inh, HDAC3 inhib)
CN(C)c1ccccc1-c1cc(NC=O)c2ncc(-c3cccc(C(F)(F)F)c3)n2c1	MC4R barr agon 27 (no result: NALP1 inh, ALR inh, HDAC3 inhib) | MC4R barr conf 27 | MOR-DOR barr ag inactive
COc1ccc(-c2cc(NC=O)c3ncc(-c4cccc(C(F)(F)F)c4)n3c2)cc1OC	MC4R barr agon 36 (no result: NALP1 inh, ALR inh, HDAC3 inhib) | MC4R barr conf 27 | MOR-DOR barr ag inactive

Compound activity deposited in PubChem by several laboratories.
